Literature values, collected in patent publication US20190214145A1, “Method and systems for creating and screening patient metabolite profile to diagnose current medical condition, diagnose current treatment state and recommend new treatment regimen” (priority 2018, published 2019).

Details: vaporizing temperature

BP: 155 °C
Substance: α,β-pinene
